What was measured:
[1] = tested on: A673 cells; test: Inhibition of proliferation of A673 cells (CyQUANT, 72 hour); conditions: read-out: A673 IC50, 72 hour proliferation
Experimental: A673 cells are a cell line derived from human muscle Ewing's sarcoma. Representative compounds of the invention were tested at different concentrations (from 4 μM to 126.4 pM; 0.5 log serial dilutions) for their ability to inhibit the proliferation of A673 cells. Known CDK inhibitors flavopiridol and triptolide were used as positive controls. Cells were grown in Dulbecco's Modified Eagle's Medium, +10% FBS+1 mM Sodium Pyruvate. The cells were cultured at 37° C. in a humidified chamber in the presence of 5% CO2. Proliferation assays were conducted over a 72 hour time period. CyQUANT® (Life Technologies, Chicago, Ill. USA) was used to assess the anti-proliferative effects of the compounds following manufacturer's directions and utilizing the reagents supplied with the CyQUANT® kit. In this table, “A” represents an IC50 of less than 500 nM; “B” an IC50 of between 500 nM and 5 μM; and “C” an IC50 of greater than 5 μM.

Chains of the proteins cited; added tags and fusions are not shown.
UniProt P50613, whole entry: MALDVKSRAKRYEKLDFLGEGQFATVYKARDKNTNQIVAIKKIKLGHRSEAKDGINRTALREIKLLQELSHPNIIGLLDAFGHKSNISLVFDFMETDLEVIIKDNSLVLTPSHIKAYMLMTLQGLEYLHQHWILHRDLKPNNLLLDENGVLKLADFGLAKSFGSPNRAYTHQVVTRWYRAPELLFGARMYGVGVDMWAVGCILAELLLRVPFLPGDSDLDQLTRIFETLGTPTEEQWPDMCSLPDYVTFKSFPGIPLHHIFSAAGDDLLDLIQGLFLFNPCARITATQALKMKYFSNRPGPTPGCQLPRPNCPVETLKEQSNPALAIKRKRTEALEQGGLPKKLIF
UniProt P51948, whole entry partner: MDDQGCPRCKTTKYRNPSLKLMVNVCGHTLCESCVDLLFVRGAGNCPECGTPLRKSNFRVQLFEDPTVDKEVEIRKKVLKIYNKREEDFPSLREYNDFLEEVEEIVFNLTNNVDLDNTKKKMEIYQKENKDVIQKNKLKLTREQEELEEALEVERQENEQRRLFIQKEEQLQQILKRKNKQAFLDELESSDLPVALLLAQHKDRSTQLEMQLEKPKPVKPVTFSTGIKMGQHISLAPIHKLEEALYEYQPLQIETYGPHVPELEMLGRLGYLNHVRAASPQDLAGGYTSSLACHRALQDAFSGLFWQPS
UniProt P51946, whole entry partner: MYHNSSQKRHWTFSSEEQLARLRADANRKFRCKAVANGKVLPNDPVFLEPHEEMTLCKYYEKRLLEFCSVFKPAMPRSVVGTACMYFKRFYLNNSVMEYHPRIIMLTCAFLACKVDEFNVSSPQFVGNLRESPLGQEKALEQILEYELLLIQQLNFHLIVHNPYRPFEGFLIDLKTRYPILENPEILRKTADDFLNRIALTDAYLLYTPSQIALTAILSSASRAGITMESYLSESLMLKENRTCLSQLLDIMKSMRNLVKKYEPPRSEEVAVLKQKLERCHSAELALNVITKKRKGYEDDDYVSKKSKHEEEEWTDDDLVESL

[2] = target: CDK7/Cyclin H/MAT1 trimeric complex (Homo sapiens, UniProt P50613); test: CDK7 kinase assay, Caliper/LabChip EZ Reader (Biortus Biosciences); conditions: read-out: CDK7 Inhibition (IC50), CDK7/Cyclin H/MAT1 10 nM, ATP 2 mM, FAM-CDK7tide 2 μM, 30 min incubation

Row | IC50 [2] [µM] | SMILES | IC50 [1] [µM]
1 | 0.1 to 1 | C=CC(=O)N1CCN2C[C@@H](Nc3ncc(Cl)c(-c4c[nH]c5ccccc45)n3)C[C@H]2C1 | < 0.5
2 | < 0.1 | CN(C)C/C=C/C(=O)N1CCC2(C1)CN([C@@H]1CCC[C@@H](Nc3ncc(Cl)c(-c4c[nH]c5ccccc45)n3)C1)C2 | < 0.5
3 | 0.1 to 1 | COC/C=C/C(=O)N1CCN([C@H]2CCC[C@@H](Nc3ncc(Cl)c(-c4c[nH]c5ccccc45)n3)C2)CC1 | < 0.5
4 | < 0.1 | C=CC(=O)NCC1CN(C2CCCC(Nc3ncc(Cl)c(-c4c[nH]c5ccccc45)n3)C2)CCO1 (single isomer, unassigned) [336] | 0.5 to 5
5 | 0.1 to 1 | C=CC(=O)N1CCN([C@H]2CC[C@@H](Nc3ncc(Cl)c(-c4c[nH]c5ccccc45)n3)C2)CC1 | < 0.5
6 | < 0.1 | C=CC(=O)N1CCN(C2CCC[C@@H](Nc3ncc(Cl)c(-c4c[nH]c5ccccc45)n3)C2)[C@H](C)C1 (stereo partly drawn) | < 0.5
7 | < 0.1 | C=CC(=O)N1CCN([C@H]2CCC[C@@H](Nc3ncc(Cl)c(-c4c[nH]c5ccc(F)cc45)n3)C2)CC1 | < 0.5
8 | < 0.1 | C=CC(=O)N1CCC(N2CCC[C@@H](Nc3ncc(Cl)c(-c4c[nH]c5ccccc45)n3)C2)CC1 | < 0.5
9 | < 0.1 | C=CC(=O)N1CCCN([C@H]2CCC[C@@H](Nc3ncc(Cl)c(-c4c[nH]c5ccccc45)n3)C2)CC1 | < 0.5
10 | 0.1 to 1 | C=CC(=O)N1CCC2(CC1)CN([C@H]1CCC[C@@H](Nc3ncc(Cl)c(-c4c[nH]c5ccccc45)n3)C1)C2 | < 0.5
11 | < 0.1 | C=CC(=O)N1CC2(CCN([C@@H]3CCC[C@@H](Nc4ncc(Cl)c(-c5c[nH]c6ccccc56)n4)C3)C2)C1 | < 0.5
12 | < 0.1 | C=CC(=O)N1CCC2(C1)CN([C@@H]1CCC[C@@H](Nc3ncc(Cl)c(-c4c[nH]c5ccccc45)n3)C1)C2 | < 0.5
13 | 0.1 to 1 | C=CC(=O)N1CCN([C@H]2CCC[C@@H](Nc3ncc(Cl)c(-c4csc5ccccc45)n3)C2)CC1 | < 0.5
14 | < 0.1 | C=CC(=O)N1CCN([C@H]2CCC[C@@H](Nc3ncc(C#N)c(-c4c[nH]c5ccccc45)n3)C2)CC1 | < 0.5
15 | 0.1 to 1 | C=CC(=O)N1CCN([C@H]2CCC[C@@H](Nc3ncc(Cl)c(-c4c[nH]c5ccccc45)n3)C2)CC1C(F)(F)F (stereo partly drawn) | < 0.5
16 | 0.1 to 1 | C=CC(=O)N1CCN([C@H]2CCC[C@@H](Nc3ncc(Cl)c(-c4c[nH]c5cccc(Cl)c45)n3)C2)CC1 | < 0.5
17 | > 1 | C=CC(=O)N1CCN([C@H]2CCC[C@@H](Nc3nc(-c4c[nH]c5ccccc45)ncc3Cl)C2)CC1 | < 0.5
18 | < 0.1 | C=CC(=O)N1CCC(F)(CN[C@H]2CCC[C@@H](Nc3ncc(Cl)c(-c4c[nH]c5ccccc45)n3)C2)CC1 | < 0.5
19 | > 1 | C=CC(=O)N1CCCC(N2CC(Nc3ncc(Cl)c(-c4c[nH]c5ccccc45)n3)C2)C1 (stereo not drawn) | < 0.5
20 | 0.1 to 1 | C/C=C/C(=O)N1CCN([C@H]2CCC[C@@H](Nc3ncc(Cl)c(-c4c[nH]c5ccccc45)n3)C2)CC1 | < 0.5

Second part, the compound before the results:

Row | SMILES | IC50 [2] [µM] | IC50 [1] [µM]
21 | CN(C)C/C=C/C(=O)N1CCC2(CC1)CC(CN[C@H]1CCC[C@@H](Nc3ncc(Cl)c(-c4c[nH]c5ccccc45)n3)C1)C2 | < 0.1 | < 0.5
22 | CN(C)C/C=C/C(=O)N1CCN(CCN2CCC[C@@H](Nc3ncc(Cl)c(-c4c[nH]c5ccccc45)n3)C2)CC1 | < 0.1 | < 0.5
23 | CN(C)C/C=C/C(=O)N1CCC(CN[C@H]2CCC[C@@H](Nc3ncc(Cl)c(-c4cnn5ccccc45)n3)C2)C1 (stereo partly drawn) | < 0.1 | < 0.5
24 | C=CC(=O)N1CCN(CCN2CCC[C@@H](Nc3ncc(Cl)c(-c4c[nH]c5ccccc45)n3)C2)CC1 | < 0.1 | < 0.5
25 | C=CC(=O)N1CCC(CN[C@@]2(C)CCC[C@@H](Nc3ncc(Cl)c(-c4cnn5ccccc45)n3)C2)CC1 | < 0.1 | < 0.5
26 | CN(C)C/C=C/C(=O)N1CCN2C[C@@H](Nc3ncc(Cl)c(-c4c[nH]c5ccccc45)n3)C[C@H]2C1 | 0.1 to 1 | < 0.5
27 | CN(C)C/C=C/C(=O)N1CCC(C)(CN[C@H]2CCC[C@@H](Nc3ncc(Cl)c(-c4c[nH]c5ccccc45)n3)C2)CC1 | < 0.1 | < 0.5
28 | CN(C)C/C=C/C(=O)N1CCC(CN[C@H]2CCC[C@@H](Nc3ncc(C(F)(F)F)c(-c4c[nH]c5ccccc45)n3)C2)C1 (stereo partly drawn) | < 0.1 | < 0.5
29 | C/C=C/C(=O)N1CCC(CN[C@H]2CCC[C@@H](Nc3ncc(Cl)c(-c4c[nH]c5ccccc45)n3)C2)CC1 | 0.1 to 1 | < 0.5
30 | CN(C)C/C=C/C(=O)N1CCN([C@H]2CCC[C@@H](Nc3ncc(Cl)c(-c4cn(C)c5ccccc45)n3)C2)CC1 | 0.1 to 1 | < 0.5
31 | CN(C)C/C=C/C(=O)Nc1cnc(CN[C@H]2CCC[C@@H](Nc3ncc(Cl)c(-c4c[nH]c5ccccc45)n3)C2)nc1 | < 0.1 | < 0.5
32 | C=CC(=O)NC[C@H]1C[C@@H]1C(=O)N[C@H]1CCC[C@@H](Nc2ncc(Cl)c(-c3c[nH]c4ccccc34)n2)C1 | < 0.1 | < 0.5
33 | CN(C)C/C=C/C(=O)N1CCC(N2CCC[C@@H](Nc3ncc(Cl)c(-c4c[nH]c5ccccc45)n3)C2)CC1 | < 0.1 | < 0.5
34 | CN(C)C/C=C/C(=O)N1CCN([C@H]2CCC[C@@H](Nc3ncc(Cl)c(-n4cnc5ccccc54)n3)C2)CC1 | 0.1 to 1 | < 0.5
35 | CCc1cnc(N[C@@H]2CCC[C@H](NCC3CCN(C(=O)/C=C/CN(C)C)C3)C2)nc1-c1c[nH]c2ccccc12 (stereo partly drawn) | < 0.1 | 0.5 to 5
36 | CN(C)C/C=C/C(=O)Nc1cnn([C@H]2CCC[C@@H](Nc3ncc(Cl)c(-c4c[nH]c5ccccc45)n3)C2)c1 | < 0.1 | < 0.5
37 | C=CC(=O)N1CCC(CN[C@H]2CCC[C@@H](Nc3ncc(Cl)c(-c4cnn5ccccc45)n3)C2)C1 (stereo partly drawn) | 0.1 to 1 | < 0.5
38 | C=CC(=O)N1CCC(CN[C@H]2CCC[C@@H](Nc3ncc(CC)c(-c4c[nH]c5ccccc45)n3)C2)C1 (stereo partly drawn) | 0.1 to 1 | < 0.5
39 | C=CC(=O)N1CCN([C@H]2CCC[C@@H](Nc3ncc(Cl)c(-c4noc5ccccc45)n3)C2)CC1 | 0.1 to 1 | < 0.5
40 | CN(C)C/C=C/C(=O)N1CCN([C@H]2CCC[C@@H](Nc3ncc(Cl)c(-c4coc5ccccc45)n3)C2)CC1 | < 0.1 | < 0.5
41 | CN(C)C/C=C/C(=O)N1CCN([C@H]2CCC[C@@H](Nc3ncc(Cl)c(-c4c[nH]c5ccc(F)cc45)n3)C2)CC1 | < 0.1 | < 0.5
42 | C=CC(=O)N1CCC(CN[C@H]2CCC[C@@H](Nc3ncc(Cl)c(-c4n[nH]c5ccccc45)n3)C2)CC1 | 0.1 to 1 | < 0.5
43 | CN(C)C/C=C/C(=O)N[C@H]1CC[C@H](CN[C@H]2CCC[C@@H](Nc3ncc(Cl)c(-c4c[nH]c5ccccc45)n3)C2)CC1 | < 0.1 | < 0.5
44 | CN(C)C/C=C/C(=O)NC[C@H]1C[C@H]1C(=O)N[C@H]1CCC[C@@H](Nc2ncc(Cl)c(-c3c[nH]c4ccccc34)n2)C1 | < 0.1 | < 0.5
45 | CN(C)C/C=C/C(=O)N1CCN([C@H]2CCC[C@@H](Nc3ncc(Cl)c(-c4c[nH]c5cccc(Cl)c45)n3)C2)CC1 | < 0.1 | < 0.5

From US10106526B2, “Inhibitors of cyclin-dependent kinase 7 (CDK7)” (SYROS PHARMACEUTICALS, INC., priority 2014, dated 2018)
